Earlier results as cited in patent US20250114344A1, “COMBINATORIAL PHARMACOTHERAPY FOR THE RESTORATION OF NEURO-FUNCTION AND COMBINATORIAL PHARMACOLOGICAL COMPOSITION THEREFORE” (Neuro-Innovators, LLC., priority 2022, published 2025).

Biological target: angiotensin II receptor type 1 (AT1) (Homo sapiens, UniProt P30556)
Details: AT1 than AT2

binding affinity for AT1 relative to AT2: 3000 times
Structure (SMILES): CCCc1nc2c(C)cc(-c3nc4ccccc4n3C)cc2n1Cc1ccc(-c2ccccc2C(=O)O)cc1 [Telmisartan]
